The results in this text go back to ChEMBL document CHEMBL4402550, “Potent, Efficacious, and Stable Cyclic Opioid Peptides with Long Lasting Antinociceptive Effect after Peripheral Administration” (2020).

The chains behind the UniProt entries cited, without tags or fusion partners. Where a name states a change or a piece, a line headed by the entry shows the natural chain unless it says otherwise.
UniProt P35372, whole entry, looked up: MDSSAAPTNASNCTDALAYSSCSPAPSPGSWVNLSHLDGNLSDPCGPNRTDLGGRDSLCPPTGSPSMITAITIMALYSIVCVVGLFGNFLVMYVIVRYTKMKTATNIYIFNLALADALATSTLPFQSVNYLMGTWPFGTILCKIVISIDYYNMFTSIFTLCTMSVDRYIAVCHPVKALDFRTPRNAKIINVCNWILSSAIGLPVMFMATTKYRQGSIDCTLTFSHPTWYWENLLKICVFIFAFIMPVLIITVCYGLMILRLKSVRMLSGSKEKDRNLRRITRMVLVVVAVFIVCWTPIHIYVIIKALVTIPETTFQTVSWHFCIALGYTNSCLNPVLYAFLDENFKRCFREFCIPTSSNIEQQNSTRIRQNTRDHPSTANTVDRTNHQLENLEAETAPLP
UniProt P41143, whole entry, looked up: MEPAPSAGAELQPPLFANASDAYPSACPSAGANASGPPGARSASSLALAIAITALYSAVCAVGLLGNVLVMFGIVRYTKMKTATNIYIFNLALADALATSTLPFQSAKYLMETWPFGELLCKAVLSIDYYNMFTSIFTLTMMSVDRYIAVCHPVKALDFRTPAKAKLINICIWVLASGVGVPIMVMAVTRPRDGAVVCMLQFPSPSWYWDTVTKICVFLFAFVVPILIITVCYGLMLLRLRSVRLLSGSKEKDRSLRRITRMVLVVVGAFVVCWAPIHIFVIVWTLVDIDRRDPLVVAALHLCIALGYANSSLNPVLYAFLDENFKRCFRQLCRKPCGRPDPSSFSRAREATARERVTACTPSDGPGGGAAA
UniProt P41145: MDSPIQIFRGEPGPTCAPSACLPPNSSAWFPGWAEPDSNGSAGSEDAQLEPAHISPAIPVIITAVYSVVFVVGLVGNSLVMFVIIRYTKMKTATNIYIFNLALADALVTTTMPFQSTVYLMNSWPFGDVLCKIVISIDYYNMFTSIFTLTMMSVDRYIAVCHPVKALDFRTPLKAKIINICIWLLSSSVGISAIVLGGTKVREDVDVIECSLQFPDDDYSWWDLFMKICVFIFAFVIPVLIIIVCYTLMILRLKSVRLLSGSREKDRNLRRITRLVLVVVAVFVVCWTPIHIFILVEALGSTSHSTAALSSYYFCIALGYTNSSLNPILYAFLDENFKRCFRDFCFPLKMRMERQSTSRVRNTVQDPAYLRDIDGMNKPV

The Emax is the greatest response seen or fitted, relative to the assay's reference.

For assay [1], the target named is Mu-type opioid receptor (Homo sapiens) (UniProt P35372). As to the kind of experiment: Agonist activity at human MOR expressed in CHO cell membranes incubated for 1 hr by [35S]-GTPgammaS coupling assay relative to DAMGO. (Binding of GTPγS marks nucleotide exchange on a G protein.)
For assay [2], the target named is Delta-type opioid receptor (Homo sapiens) (UniProt P41143). As to the kind of experiment: Agonist activity at human DOR expressed in CHO cell membranes incubated for 1 hr by [35S]-GTPgammaS coupling assay relative to SNC80.
The target of assay [3] is Kappa-type opioid receptor (Homo sapiens) (UniProt P41145). As to the kind of experiment: Agonist activity at human KOR expressed in CHO cell membranes incubated for 1 hr by [35S]-GTPgammaS coupling assay relative to U50,488.
Assay [4] deals with Mus musculus. Kind of assay: Antinociceptive activity in CD1 mouse assessed as reduction in nociception response during late phase at 0.15 umol,sc dosed 15 mins before test by formalin test.
In assay [5] the test system is Mus musculus. As to the kind of experiment: Antinociceptive activity in CD1 mouse assessed as reduction in nociception response during early phase at 0.15 umol,sc dosed 15 mins before test by formalin test.
Assay [6] relates to Mus musculus. Kind of assay: Antinociceptive activity in CD1 mouse assessed as reduction in thermal nociception at 1.5 umol/kg, iv dosed 15 mins before test and measured after 15 to 120 mins post compound dose by hot plate test. Background: In hot-plate and tail-flick tests a longer latency is read as antinociception.
Assay [7] is filed under the species Homo sapiens. Kind of assay: Selectivity index, ratio of Ki for displacement of [3H]-diprenorphine from human DOR expressed in CHO cell membranes to KI for displacement of [3H]-diprenorphine from human MOR expressed in CHO cell membranes.
For assay [8], the species on record is Homo sapiens. Kind of assay: Selectivity index, ratio of Ki for displacement of [3H]-diprenorphine from human KOR expressed in CHO cell membranes to KI for displacement of [3H]-diprenorphine from human MOR expressed in CHO cell membranes. A general note: In a radioligand displacement assay an active substance lowers the binding of a labelled ligand.
The species entered for assay [9] is Homo sapiens. As to the kind of experiment: Selectivity index, ratio of Ki for displacement of [3H]-diprenorphine from human KOR expressed in CHO cell membranes to KI for displacement of [3H]-diprenorphine from human DOR expressed in CHO cell membranes.
Assay [10] is filed under the species Homo sapiens. As to the kind of experiment: Selectivity index, ratio of EC50 for human KOR expressed in CHO cell membranes to EC50 for human MOR expressed in CHO cell membranes.
The species entered for assay [11] is Homo sapiens. As to the kind of experiment: Selectivity index, ratio of EC50 for human KOR expressed in CHO cell membranes to EC50 for human DOR expressed in CHO cell membranes.
The subject of assay [12] is Mus musculus. As to the kind of experiment: Antinociceptive activity in 5 nmol, icv opioid antagonist naloxone methiodide pre-treated CD1 mouse assessed as reduction in thermal nociception at 1.5 umol/kg, iv dosed 15 mins before test and measured after 15 to 120 mins post compound dose by hot plate test relative to control.
For assay [13], the target named is Delta-type opioid receptor (Homo sapiens) (UniProt P41143). Kind of assay: Antagonist activity at human DOR expressed in CHO cell membranes assessed as reduction in SNC80-induced response incubated for 1 hr by [35S]-GTPgammaS coupling assay relative to naloxone.
Assay [14] is filed under the species Homo sapiens. Kind of assay: Selectivity index, ratio of EC50 for human DOR expressed in CHO cell membranes to EC50 for human MOR expressed in CHO cell membranes.

The source made the active and inactive calls. The rule behind the calls is not given here.

On to `Cc1cc(O)cc(C)c1C[C@H](N)C(=O)N[C@@H]1CSCc2ccccc2CSC[C@@H](NC(=O)[C@@H](N)Cc2c(C)cc(O)cc2C)C(=O)NCC(=O)N[C@@H](Cc2ccc(F)cc2)C(=O)NNC(=O)[C@H](Cc2ccc(F)cc2)NC(=O)CNC1=O`, for which the results for the maximal effect (Emax) in assay [1], in assay [2] and in assay [3] were 104%, 27.7% and 76%, respectively. Moreover, the result in the assay on Mus musculus [4], with Mus musculus [5] and with Mus musculus [6] was Active. Moreover, the results for the Ratio Ki in the assay listed under Homo sapiens [7], in the assay listed under Homo sapiens [8] and in the assay listed under Homo sapiens [9] were 0.6, 5.5 and 9.6, respectively.

In the case of `N[C@@H](Cc1ccc(O)cc1)C(=O)N[C@@H]1CSCc2ccccc2CSC[C@@H](NC(=O)[C@@H](N)Cc2ccc(O)cc2)C(=O)NCC(=O)N[C@@H](Cc2ccccc2)C(=O)NNC(=O)[C@H](Cc2ccccc2)NC(=O)CNC1=O`, the result in the assay on Mus musculus [4], in the assay on Mus musculus [5] and in the assay on Mus musculus [6] was Active.

`N[C@@H](Cc1ccc(O)cc1)C(=O)N[C@@H]1CSCc2ccccc2CSC[C@@H](NC(=O)[C@@H](N)Cc2ccc(O)cc2)C(=O)NCC(=O)N[C@@H](Cc2ccc(F)cc2)C(=O)N2CCN(CC2)C(=O)[C@H](Cc2ccc(F)cc2)NC(=O)CNC1=O`: the Emax in assay [1] stood at 90.5%; in [2] it was 21.3%; in assay [3], 75.6%. Moreover, the Ratio EC50 in the assay filed under Homo sapiens [10] and in the assay filed under Homo sapiens [11] was 5 throughout. Further, the outcome in the assay with Mus musculus [6] and with Mus musculus [12] was Active. Moreover, the Ratio Ki came out at 0.3 in the assay filed under Homo sapiens [7], 5.3 in the assay listed under Homo sapiens [8] and 15 in the assay listed under Homo sapiens [9].

With `C[C@@H](NC(=O)[C@@H](N)Cc1ccc(O)cc1)C(=O)NCC(=O)N[C@@H](Cc1ccccc1)C(=O)NNC(=O)[C@H](Cc1ccccc1)NC(=O)CNC(=O)[C@@H](C)NC(=O)[C@@H](N)Cc1ccc(O)cc1`, the result in the assay with Mus musculus [4], in the assay with Mus musculus [5] and with Mus musculus [6] was inactive.

As for `N[C@@H](Cc1ccc(O)cc1)C(=O)N[C@@H]1CSSC[C@@H](NC(=O)[C@@H](N)Cc2ccc(O)cc2)C(=O)NCC(=O)N[C@@H](Cc2ccc(F)cc2)C(=O)N2CCN(CC2)C(=O)[C@H](Cc2ccc(F)cc2)NC(=O)CNC1=O`, the Emax in [1] was 83.6%; in assay [2] it was 11%; in assay [3], 69.3%. For the same compound, the result in the assay with Mus musculus [4] and with Mus musculus [5] was Active. Further, the Imax in assay [13] stood at 90%. In the assay on Mus musculus [6], the result was inactive. The Ratio Ki in the assay filed under Homo sapiens [7] came out at 0.4; in the assay listed under Homo sapiens [8] it was 1.6; in the assay filed under Homo sapiens [9], 4.4.

Turning to `C[C@@H](NCC(=O)N[C@@H](Cc1ccc(F)cc1)C(=O)N1CCN(C(=O)[C@H](Cc2ccc(F)cc2)NC(=O)CNC(=O)[C@@H](C)NC(=O)[C@@H](N)Cc2ccc(O)cc2)CC1)C(=O)N[C@@H](Cc1ccc(O)cc1)C(N)=O`, the outcome in the assay on Mus musculus [4] and in the assay with Mus musculus [5] was Active. Besides, the outcome in the assay on Mus musculus [6] was inactive.

As to `N[C@@H](Cc1ccc(O)cc1)C(=O)N[C@@H]1CSCc2ccccc2CSC[C@@H](NC(=O)[C@@H](N)Cc2ccc(O)cc2)C(=O)NCC(=O)N[C@@H](Cc2ccc(F)cc2)C(=O)NNC(=O)[C@H](Cc2ccc(F)cc2)NC(=O)CNC1=O`, the Emax in assay [1] is 88.6%; in assay [2], 14.3%; in [3] it was 68.6%. Moreover, the Ratio EC50 turned out to be 100 in the assay listed under Homo sapiens [10] and 20 in the assay filed under Homo sapiens [14]. The outcome in the assay with Mus musculus [4], with Mus musculus [5] and in the assay on Mus musculus [6] was Active. For the same compound, the Imax in [13] was found to be 42%. Also, the Ratio Ki in the assay filed under Homo sapiens [7] was 0.3; in the assay listed under Homo sapiens [8], 18; in the assay filed under Homo sapiens [9], 59.
